Tests used:
Type in all cases: biochemical
Conditions in all cases: in vitro
uptake of the choline = assay: inhibition of the uptake of choline by synaptosomes of the rat's brain, striatum
[1] = tested on: uptake of the dopamine (DA); assay: inhibition of the uptake of dopamine (DA) by synaptosomes of the rat's brain, striatum
[2] = tested on: uptake of the serotonine (5-HT); assay: inhibition of the uptake of serotonine (5-HT) by synaptosomes of the rat's brain, medulla + pons
From the text: (§1) The activity of the products according to the present invention as antidepressants has now been shown, in vitro, by means of the test for inhibition of the uptake of the cerebral amines by the synaptosomes of the rat's brain, according to the method of […] et al., (Biochem. Pharmacol. 22, 73, 1973) which is relied upon herein for this purpose and the disclosure incorporated by reference.
(§2) The results are expressed by an inhibiting concentration IC50, which represents the dose of product in micromoles per liter reducing by 50% the uptake of the noradrenaline (NA), the dopamine (DA), the serotonine (5-HT), or the choline in the specific regions of the brain (hypothalamus,striatum, medulla+pons) where the corresponding neurons predominate.

[3] = tested on: uptake of the noradrenaline (NA); assay: inhibition of the uptake of noradrenaline (NA) by synaptosomes of the rat's brain, hypothalamus
From the text: as §1, §2

## CC(N)Cc1ccccc1 (stereo not shown) [Amphetamine, reference compound]
Uptake of the choline
  IC50: 1000 µM
[1]
  IC50: 1.7 µM
[2]
  IC50: 5 µM
[3]
  IC50: 0.012 µM
